Patent US20170290821A1 (priority 2014, published 2017)

Tested on: HEK293 cells or A549 cells

N#CC[C@H](C1CCCC1)n1cc(-c2ncnc3[nH]ccc23)cn1 [Ruxolitinib]
cytotoxicity: did not show remarkable cytotoxicity | toxicity to host cells: relatively low toxicity to host cells
